Source: PubChem (National Center for Advancing Translational Sciences (NCATS))
Sampled rows, rich in hits. Any-hit rate of the full collection: about 0.34%.
uPA surface inh – blocks generation of uPA at the cell surface; cell surface uPA generation assay, qHTS; Potency, µM (titrated, usually from 38.3 µM), for inactives: at the top dose activity change, negative = inhibition, most hits filed as inhibitors; 330,000 compounds, 0.31% hits; AID 540303; active means well fitted inhibition curve with a large enough effect; inconclusive means small, poorly fitted or top-dose-only effect; inactive means no such curve, though single readings can be large or run the other way; tested in mouse RAW 264.7 cells; further: potency means the concentration at half of the fitted maximal effect; on the % scale 0 is the no-effect control and ±100 the full control effect; nearly all actives have a fitted effect of over 55% in size
miR-21 FLuc – miR-21 reporter, rising signal; Potency, µM (doses to about 38.3 µM), without a hit: at the top dose reporter change, positive = more light; HeLa miR-21 FLuc reporter, luciferase, 48 h; 340,000 tested, under 10 active; active = well fitted rising curve with a large enough effect; inconclusive = small, poorly fitted or top-dose-only effect; inactive = no such curve, though single readings can be large or run the other way;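 further: % of control where 0% means no effect; miR-21 action dims this reporter so a rising signal means less miR-21 action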
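HeLa cells stably expressing CMV-driven firefly luciferase with a downstream miR-21 binding sequence, endogenously expressing miR-21, were treated with titrations (up to about 40uM final) for 48 hours at 37 degree Celsius. Luciferase luminescence was read after lysis.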
TRPML1 blocker – inhibitors of human TRPML1 channel | Q9GZU1 | TRPML1-inducible cells, Ca2+ dye fluorescence, FDSS; active compounds read low; inhibition of EC80 agonist-evoked calcium signal | activity change, negative = inhibition, % (no concentration beside the values) | 390,000 compounds, 0.02% hits | AID 624415; in the data active means activity change below about -50%; inconclusive means between about -30% and that limit;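 further: stimulus is agonist 54-4 at its EC80 concentration; on the % scale 0 is the no-effect control and ±100 the full control effect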
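TRPML1-DL cells, Tet-induced overnight (~16 h, 37 °C) at 1,500 cells/well, were loaded with Ca8 no-wash dye plus quencher for 45-90 min at room temperature. Compounds were pinned during FDSS kinetic reading; agonist 54-4 at EC80 (4 uM final) then added.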
TRPML1 agonist – agonists of human TRPML1 channel. Q9GZU1. TRPML1-expressing cells, Ca2+ dye fluorescence, FDSS. activation, % (no concentration beside the values). 410,000 compounds, 0.12% hits. AID 624414; in the data active means activation above about 50%; inconclusive means mostly about 30% to 49%; further: 0% is about no effect
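In this qHTS format, compounds were pin-transferred onto Ca8-dye-loaded TRPML1-DL cells induced with Tet overnight, and intracellular Ca2+ fluorescence was recorded kinetically for 110 s after a 10 s baseline. A subsequent 4uM final 54-4 (EC80) addition followed by a second 110 s read served as the antagonist phase.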
* = called active by the depositor; ? = inconclusive; . = no result.

The opening 2 records, ahead of the listing:
Letters: A = uPA surface inh; B = miR-21 FLuc; C = TRPML1 blocker; D = TRPML1 agonist
1) O=C(NCc1cccnc1)/C(=C\c1ccc(-c2ccc(Cl)c(Cl)c2)o1)S(=O)(=O)c1ccccc1
  A: 10µM*; B: ?; C: 64; D: 1
2) Cc1sc2ccccc2[n+]1C
  A: .; B: .; C: .; D: 2

The list itself, repeating the preview:
Letters: A = uPA surface inh; B = miR-21 FLuc; C = TRPML1 blocker; D = TRPML1 agonist
1) O=C(NCc1cccnc1)/C(=C\c1ccc(-c2ccc(Cl)c(Cl)c2)o1)S(=O)(=O)c1ccccc1
  A: 10µM*; B: ?; C: 64; D: 1
2) Cc1sc2ccccc2[n+]1C
  A: .; B: .; C: .; D: 2
3) C[C@H](NC(=O)[C@H](Cc1ccccc1)n1c(=O)[nH]c2ccccc2c1=O)C(=O)N1CCC(C(=O)O)CC1
  A: 4.5µM*; B: 0%; C: .; D: .
4) CC(C)Cc1nn2c(=O)cc(COC(=O)c3ccccc3NC(=O)c3ccccc3)nc2s1
  A: .; B: -8%; C: -56*; D: 0
5) O=C(/C=C/c1ccccc1)Nc1cccc(C(=O)NC2CC2)c1
  A: 13µM*; B: .; C: -6; D: 1
6) CN(C)/[N+]([O-])=N/Oc1cc(F)c([N+](=O)[O-])cc1[N+](=O)[O-]
  A: .; B: .; C: 2; D: 1
7) Cn1cc(C(=O)N/N=C/C(Br)=C/c2ccccc2)ccc1=O
  A: 5.6µM*; B: 11%; C: 7; D: -1
8) CC(=O)N1CCN(c2ccc(NCc3ccco3)cc2)CC1
  A: 4.5µM*; B: .; C: .; D: .
9) CC(C)(C)n1ncc2c(=O)n(Cc3cccc(F)c3)cnc21
  A: .; B: .; C: 6; D: 0
10) COc1ccc2nc(SCC(=O)NC(C)C)[nH]c2c1
  A: 1%; B: -12%; C: -7; D: 2

Letters: A = uPA surface inh; B = miR-21 FLuc; C = TRPML1 blocker; D = TRPML1 agonist
11) COc1ccc2nc(SCC(=O)NC3CCCCC3C)[nH]c2c1 (centres undefined)
  A: 8.9µM*; B: .; C: -5; D: 0
12) CN1CCN(c2ccccc2NC(=O)c2ccc([N+](=O)[O-])o2)CC1
  A: 4.5µM*; B: 11%; C: -1; D: 0
13) CC1(C)CCC(c2ccc(Cl)cc2)=C(CN2CCN(c3ccc(C(=O)NS(=O)(=O)c4ccc(N[C@H](CCN5CCOCC5)CSc5ccccc5)c(S(=O)(=O)C(F)(F)F)c4)cc3)CC2)C1
  A: .; B: .; C: .; D: 0
14) CC(=O)Nc1ccc(/C=C/c2ccccn2)cc1
  A: .; B: .; C: .; D: 0
15) Cc1ccc(Nc2nc(-c3ccccc3)cs2)nc1
  A: 10µM*; B: 17%; C: -11; D: -1
16) Oc1ccc(-c2csc(Nc3ccccn3)n2)cc1O
  A: 4µM*; B: -69%; C: 0; D: -2
17) Cc1ccc(Nc2nc(-c3cccs3)cs2)nc1
  A: ?; B: 22%; C: -20; D: 0
18) Cc1ccc(S(=O)(=O)N2CCN(c3nc(-n4ccnn4)nc4ccccc34)CC2)cc1
  A: .; B: .; C: .; D: 0
19) CCC[N+](C)(C)c1ccc(/C=C/c2ccnc3ccccc23)cc1
  A: .; B: .; C: .; D: 0
20) CC(C)N(CCC(=O)c1ccc2ccccc2c1)Cc1ccccc1
  A: 3.2µM*; B: .; C: -5; D: 14

Letters: A = uPA surface inh; B = miR-21 FLuc; C = TRPML1 blocker; D = TRPML1 agonist
21) CC(OC(=O)c1ccc2ccccc2c1)C(=O)N(C)Cc1ccccc1 (centres undefined)
  A: ?; B: .; C: 0; D: 1
22) CCC1=NN(C(=O)c2ccccc2Br)C(O)(c2ccc(Br)cc2)C1 (centres undefined)
  A: -10%; B: -3%; C: -19; D: 0
23) CCC1=NN(C(=O)c2ccccc2O)C(O)(c2ccccc2)C1 (centres undefined)
  A: 11µM*; B: -4%; C: 0; D: 4
24) O=C(OCCF)N1CCN(/[N+]([O-])=N/Oc2ccc([N+](=O)[O-])cc2[N+](=O)[O-])CC1
  A: .; B: .; C: -6; D: 1
25) C=C(CC)C(=O)c1ccc(OCC(=O)O)c(Cl)c1Cl
  A: 4.5µM*; B: 0%; C: -3; D: -1
26) Cc1cc2nc3c(=O)n(C4CCCCC4)c(=O)[nH]c3nc2cc1N
  A: -3%; B: -40%; C: -30; D: 87*
27) COc1ccc(NC(C)=O)cc1S(=O)(=O)Nc1ccc(S(=O)(=O)N2CCCCC2)cc1
  A: 4%; B: .; C: -11; D: 0
28) COc1ccc(NC(C)=O)cc1NC(C)C(=O)Nc1ccc(S(=O)(=O)N2CCCCC2)cc1 (centres undefined)
  A: 3.2µM*; B: .; C: 1; D: 0
29) COC(=O)c1cc(O)cc(OC)c1C(=O)c1c(O)cc(C)cc1O
  A: -18%; B: 0%; C: .; D: .
30) COC(=O)c1cc(O)cc(OC)c1Oc1cc(C)cc(O)c1C(=O)O
  A: 0.89µM*; B: ?; C: .; D: .

Whole records, looked up by structure. Order of values: uPA surface inh | miR-21 FLuc | TRPML1 blocker | TRPML1 agonist
COC(=O)c1cc(O)cc(OC)c1C(=O)c1c(O)cc(C)cc1O is listed as -18% | 0% | . | .
COc1ccc(NC(C)=O)cc1S(=O)(=O)Nc1ccc(S(=O)(=O)N2CCCCC2)cc1 is listed as 4% | . | -11 | 0

Next part:
Letters: A = uPA surface inh; B = miR-21 FLuc; C = TRPML1 blocker; D = TRPML1 agonist
31) Cc1ccc2cccc(NC(=O)c3ccc(-c4cccc(Cl)c4)o3)c2n1
  A: .; B: 2%; C: -9; D: 0
32) CCCCOc1ccc(CSC2=NCCN2)cc1[N+](=O)[O-]
  A: 6.3µM*; B: 14%; C: -13; D: 8
33) O=C(CCl)N1CCN(S(=O)(=O)c2ccc3c(c2)CCC3)CC1
  A: 1µM*; B: .; C: -7; D: 0
34) O=C(NCC(c1ccco1)N1CCc2ccccc21)C(=O)Nc1ccc(F)cc1F (centres undefined)
  A: 3.2µM*; B: .; C: -17; D: 0
35) O=C(NCC(c1ccco1)N1CCc2ccccc21)C(=O)Nc1ccccc1F (centres undefined)
  A: ?; B: .; C: 14; D: 0
36) COc1ccccc1NC1=C(NC(C)=O)C(=O)c2ccccc2C1=O
  A: 13µM*; B: 12%; C: 5; D: 1
37) CCOC(=O)N1CCN(/[N+]([O-])=N/OCOC)CC1
  A: .; B: .; C: -7; D: 1
38) O=S(=O)(Nc1ccccc1N1CCCC1)c1ccccc1C(F)(F)F
  A: .; B: .; C: -8; D: 0
39) O=S(=O)(Nc1ccccc1N1CCCCC1)c1ccc(Cl)s1
  A: 12%; B: -3%; C: -24; D: 97*
40) Cc1cccc(C(=O)Nc2nnc(SCC(=O)NC3CC3)s2)c1
  A: -2%; B: -12%; C: -52*; D: 0

Letters: A = uPA surface inh; B = miR-21 FLuc; C = TRPML1 blocker; D = TRPML1 agonist
41) O=C(Nc1nc(-c2ccccn2)cs1)c1ccc(F)c(S(=O)(=O)N2CCOCC2)c1
  A: 4µM*; B: .; C: 16; D: -1
42) Cc1ccc(C(=O)Nc2nc(-c3ccccn3)cs2)cc1S(=O)(=O)N1CCOCC1
  A: ?; B: .; C: 6; D: -1
43) CN(CC1CCCO1)S(=O)(=O)c1ccc(C(=O)Nc2nc(-c3ccccn3)cs2)cc1 (centres undefined)
  A: 4µM*; B: 11%; C: -9; D: 0
44) O=C(Nc1nc(-c2ccccn2)cs1)c1cc(S(=O)(=O)N2CCOCC2)ccc1F
  A: 10µM*; B: .; C: -2; D: 3
45) CN(CC1CCCO1)S(=O)(=O)c1ccc(C(=O)Nc2ccccc2F)cc1 (centres undefined)
  A: 2%; B: .; C: 2; D: 0
46) CN(C)c1ccc(/C=C2\C=Cc3ccccc32)c(Cl)c1
  A: .; B: .; C: .; D: 0
47) COc1ccc2[nH]c(C)c(C(=O)CNc3nccs3)c2c1
  A: .; B: .; C: .; D: 0
48) O=C(CSc1nnc(NC(=O)c2ccccc2F)s1)NCC1CCCO1 (centres undefined)
  A: 6.3µM*; B: -41%; C: 42; D: 0
49) CCCCc1ncc(CN2CCC(CC3CCCCO3)(C(=O)OCC)CC2)[nH]1 (centres undefined)
  A: -5%; B: -1%; C: -17; D: 0
50) CCOC(=O)C1(CC2CCCCO2)CCN(Cc2cc3ccccc3[nH]2)CC1 (centres undefined)
  A: -3%; B: 28%; C: 2; D: 95*

Letters: A = uPA surface inh; B = miR-21 FLuc; C = TRPML1 blocker; D = TRPML1 agonist
51) CCc1cc(C(=O)/C=C/c2cc3c(cc2C)OCCO3)c(O)cc1O
  A: .; B: .; C: .; D: 0
52) CC(C)(C)/C(O)=C/c1nc2ccccc2oc1=O
  A: -17%; B: -1%; C: -14; D: 1
53) O=c1oc2ccccc2nc1/C=C(\O)c1ccccc1
  A: 2.2µM*; B: -28%; C: -2; D: 0
54) O=C(C[n+]1csc2ccccc21)c1cccc([N+](=O)[O-])c1
  A: .; B: .; C: .; D: -1
55) O=C1/C(=C/c2cccnc2)CCC/C1=C\c1cccnc1
  A: 8.9µM*; B: ?; C: 24; D: 0
56) O=C1/C(=C/c2cccnc2)CC/C1=C\c1cccnc1
  A: -1%; B: -1%; C: 4; D: -1
57) Cc1cnc(NC(=O)CCc2ccccc2)s1
  A: 10µM*; B: -13%; C: .; D: .
58) C[N+]1(CC(=O)c2ccc(Cl)c(Cl)c2)CCOCC1
  A: .; B: .; C: .; D: 0
59) C#Cc1ccc2c(c1)COc1c3ccccc3nn1-2
  A: 13µM*; B: .; C: 35; D: 0
